We go through 1 substance from patent publication US10821276B2, “System and method to locally deliver therapeutic agent to inner ear” (The Trustees of Columbia University in the City of New York, priority 2012, dated 2020).

For series [1] the following is noted: intact RWM, previous studies; cited from earlier work.
A short description of series [2]: Permeability of one pore estimated from diffusion coefficient and membrane thickness (P=D/h); 1% area perforation improvement. Conditions: estimated from diffusion coefficient. From the text: From Fick's first law, diffusion is described by J=−D∇ϕ (1) where J is diffusion flux in mol/m^2*s, D is the diffusion coefficient in m^2/s, and ϕ is the concentration in mol/l. Then from a one-dimensional simplification of the pore
[formula] This can be further simplified with the gradient is uniform across the pore to obtain
[formula] where x is the axis through the pore in m, cx is the concentration at both ends in mol/l, and h is the RWM thickness in m. Then from the definition of flux
[formula] the permeability of the membrane is Flux=−PA(c1−c0) (5) where P=D/h is the permeability in m/s.
Thus the permeability of one pore can be estimated from the diffusion coefficient and the thickness of the membrane (10 μm, guinea pig).

On to Gentamicin, for which, in series [1], the “Permeability KP RWM” value is given as 5~35 10^−8 ms^−1. Moreover, in series [2], the “Estimated Permeability KP PORE” value was 6.82 10^−5 ms^−1.
